A word on the Km: it is the concentration of substrate that gives half-maximal velocity. By Vmax is commonly meant the top rate of the reaction or transport when substrate is in excess.

The values that follow come from patent US8445240B2, “Termite enzymes and uses thereof for in vitro conversion of lignin-containing materials to fermentable products” (University of Florida Research Foundation, Inc., priority 2009, dated 2013).

For one data set, the system named is Cellobiose. Put plainly: purified protein, by the assay type.
A further data set relates to Oc1ccc(O)cc1. Put plainly: purified protein, by the assay type.

“recombinant RfBGluc-1 β-glucosidase (Reticulitermes flavipes)”: in the data set with Cellobiose, the Michaelis-Menten constant (Km) is listed as 1.44 ± 0.14 mM and the Vmax was 638 µmol/min/mg. For RfLacA (Reticulitermes flavipes), the Km with Oc1ccc(O)cc1 stood at 2.306 mM.
